{
  "source": "paper PMC3345099",
  "about": "(Journal of Immunology (Baltimore, Md. : 1950), 2012)",
  "target": "HLA A*11:01 (purified MHC class I) (Homo sapiens, UniProt P04439, A114D/D185E/E176A/F33Y/L180Q/S129P/T187R)",
  "assay": "In vitro radiolabeled competitive HLA binding assay",
  "data": [
    {"smiles": "C[C@@H](O)[C@H](NC(=O)[C@@H](N)CCCCN)C(=O)N[C@@H](CO)C(=O)N[C@@H](CCC(=O)O)C(=O)N[C@@H](CCCNC(=N)N)C(=O)N[C@@H](CO)C(=O)N[C@@H](CCC(N)=O)C(=O)N1CCC[C@H]1C(=O)N[C@@H](CCCNC(=N)N)C(=O)O", "values": [
      {"measurement": "IC50", "result": 38, "unit": "nM"}
    ]}
  ]
}
